# Ab-91 heavy chain CDR variants: yeast mating affinities

The measurements come from Engelhart et al. 2022 (doi:10.1038/s41597-022-01779-4) through the FLAb antibody collection.

Target peptide (SARS-CoV-2 spike, HR2 region): PDVDLGDISGINAS

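The starting antibody came from a phage panning campaign against this peptide. In library AAYL51, one, two or three CDR residues were substituted; doubles and triples were drawn at random. In AlphaSeq, yeast of one mating type display the scFv and yeast of the other type display the target. Mating (16 h, 30 °C) was followed by selection of diploids and sequencing of their barcodes. The ratio of observed to expected reads was calibrated, replicate by replicate, on BCL2-family standards whose Kd was known from biolayer interferometry. Each pool was mated in three replicate cultures.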

Each scFv is VL, a 15-residue (Gly4Ser)3 linker, VH, as in the parent Ab-91, and differs from it in the CDRs of the heavy chain only.
VL: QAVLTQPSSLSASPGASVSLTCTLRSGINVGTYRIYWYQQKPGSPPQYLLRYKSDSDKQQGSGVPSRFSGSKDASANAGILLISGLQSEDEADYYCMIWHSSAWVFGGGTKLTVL
VH: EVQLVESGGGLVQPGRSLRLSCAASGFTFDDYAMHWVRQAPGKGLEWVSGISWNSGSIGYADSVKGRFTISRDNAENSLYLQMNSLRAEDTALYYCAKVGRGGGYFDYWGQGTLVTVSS

Positions count from residue 1 of the parent VH; Y60R puts R in place of Y. Every variant below is changed at Y108 of the VH (sequential numbering). Values are log10 of the apparent Kd in nM; lower means stronger binding. A mean of the replicates is given; it leaves out those without a signal. An entry "ND" has no value in the source: the pair was not observed among the diploids in that replicate. This suggests poor binding but is not conclusive. Three control strains display no target. For library AAYL51, 21% of the pairings with them gave a signal, with a median of 4.54 and one signal in twenty below 3.26, so weak values seen in few replicates may be background.

| changes | log10 Kd, replicates | mean, log10 nM |
|---|---|---|
| Y60R+D107Y+Y108I | ND / ND / ND | ND |
| V64I+D107Y+Y108P | 1.86 / 1.82 / 1.45 | 1.71 |
| T28F+G56M+Y108W | 2.28 / 2.90 / 1.81 | 2.33 |
| G59I+F106H+Y108W | 6.22 / ND / ND | 6.22 |
| T28F+V99G+Y108L | ND / ND / ND | ND |

For reference, the parent read 1.86 as the reference entry and 0.88 as a member of this library.